Measurements published in patent US20250066420A1, “PD-L1 INHIBITORY PEPTIDE FOR CANCER IMMUNOTHERAPY” (Kansas State University Research Foundation, priority 2021, published 2025).

The chains behind the UniProt entries cited, without tags or fusion partners. Residues count along the entry.
UniProt Q9NZQ7, 19-290: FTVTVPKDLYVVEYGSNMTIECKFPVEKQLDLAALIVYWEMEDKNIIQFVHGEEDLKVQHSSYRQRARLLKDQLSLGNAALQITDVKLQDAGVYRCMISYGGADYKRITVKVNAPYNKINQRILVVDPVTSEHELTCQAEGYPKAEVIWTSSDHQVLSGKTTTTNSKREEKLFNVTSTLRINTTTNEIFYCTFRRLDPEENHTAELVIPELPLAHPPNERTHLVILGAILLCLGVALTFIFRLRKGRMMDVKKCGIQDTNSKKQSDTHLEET

Biological target: T1, human PD-L1 (Homo sapiens, UniProt Q9NZQ7)
T1 construct: biotin (biotinylated); purchased R&D Systems (Minneapolis, Minnesota)
Test: Bio-layer interferometry binding to biotinylated PD-L1
Settings: read-out: dissociation constant KD
Source text: Binding of the computationally designed PD-L1ip3 peptide to PD-L1 was verified using a FortéBio BLItz machine (Freemont, CA, USA). The PD-L1ip3 peptide and its scrambled analogue were synthesized by GenScript (Piscataway, NJ) with no modifications or labels. Biotinylated human PD-L1 and untagged PD-1 (a positive control) were purchased from R&D Systems (Minneapolis, Minnesota). For each experiment, the BLItz machine was fitted with a fresh streptavidin biosensor tip (FortéBio). All tips were solvated in PBS buffer for 15-30 min before the experiments. The peptide was solvated at a concentration of approximately 1 mg/ml. The precise concentration of this stock solution (0.922 mg/ml) was obtained using the Pierce BCA Protein Assay Kit (Thermo Fisher Scientific) and multiple dilutions were made (corresponding to […]). A solution of biotinylated PD-L1 was applied to the biosensor tip during the loading phase of each experiment. PBS buffer (ix) was used for the baseline. The scrambled-sequence peptide, PD-L1ip3SC, served as the negative control and PD-1, the natural binding partner of PD-L1, was the positive control.

Kd: ~8 µM
Substance: PD-1: untagged PD-1, the natural binding partner of PD-L1, positive control
